Data: patent WO2016169030A1, “Fumarate and crystals of pyridylamine compound” (priority 2015, dated 2016)

Assay: Humidity (wettability/hygroscopicity) test, Chinese Pharmacopoeia 2010
Type: physicochemical
Settings: Guidelines for Drug Wetting Test, Chinese Pharmacopoeia 2010 Edition 2 Appendix XIX J; Table 2

Wet weight gain: 3.60%
Substance: Succinate
